Measurements published in PubChem BioAssay AID1040 (The Scripps Research Institute Molecular Screening Center, 2008).
This is a selection; strong and weak results do not stand in their true shares. Calls of active or inactive are those of the source.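 How the source made its calls: active means inhibition above the campaign mean inhibition of all tested compounds plus 3 SD (cut at about 20% in these data); inactive means the rest.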

By UniProt entry, the sequences of proteins in these tests, tags left out.
UniProt P25929, whole entry, looked up: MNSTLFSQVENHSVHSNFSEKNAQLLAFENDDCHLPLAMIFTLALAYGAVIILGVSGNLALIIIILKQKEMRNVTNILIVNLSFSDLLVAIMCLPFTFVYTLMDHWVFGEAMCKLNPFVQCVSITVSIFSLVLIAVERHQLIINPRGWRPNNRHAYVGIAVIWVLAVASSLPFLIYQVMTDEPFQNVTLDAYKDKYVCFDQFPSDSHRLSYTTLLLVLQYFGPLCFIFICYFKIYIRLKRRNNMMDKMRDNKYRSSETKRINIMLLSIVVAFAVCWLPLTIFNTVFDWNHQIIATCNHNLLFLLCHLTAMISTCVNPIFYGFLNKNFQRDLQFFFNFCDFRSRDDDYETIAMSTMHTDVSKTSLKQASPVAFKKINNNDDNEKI

Biological target: Neuropeptide Y receptor type 1 (Homo sapiens) (UniProt P25929)
Experiment: blockers of human neuropeptide Y Y1 receptor – cell-based, primary screen (AID 1040);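 further: 0% = DMSO wells given NPY plus isoproterenol and 100% = isoproterenol alone without NPY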
Conditions: HEK293-CNG Y1 cells, membrane potential fluorescence; at 3.6 µM; active compounds read high; NPY at EC95, then isoproterenol

Compound | inhibition
CC(=O)N1C2C3N(C(C)=O)C1C1N(C(C)=O)C(C(N1C(C)=O)N3C(C)=O)N2C(C)=O | inactive: 5.45%
O=[N+]([O-])c1cccc2n[nH]nc12 | inactive: 4.99%
Cc1ccc(NP(=O)(Oc2ccccc2)Oc2ccccc2)nc1 | inactive: -0.93%
O=[N+]([O-])c1cc([N+](=O)[O-])c(CCNc2ccccc2)c([N+](=O)[O-])c1 | inactive: -3.71%
CCc1nc2c(n1)c1c(non1O)c1c2no[n+]1[O-] | inactive: 18.7%
COc1ccc(C2=NCC(CBr)S2)cc1 (stereo not given) | inactive: 5.06%
CC(C)=N/N=C(\N)N[N+](=O)[O-] | inactive: 2.56%
CN(C)C(=O)OCCc1n(C)cc[n+]1C | inactive: -4%
CC1CCN(C(=O)Oc2c(Cl)cc(Cl)c3cccnc23)CC1 | inactive: 8.08%
CCN(/C(=N/P(=O)(N1CCOCC1)N1CCOCC1)N1CCOCC1)c1ccc(OC)cc1 | inactive: 6.79%
O=[N+]([O-])c1ncn(CCn2ncnc2[N+](=O)[O-])n1 | inactive: 0.56%
Cc1cc(SC(NC(=O)c2ccc(F)cc2)C(Cl)(Cl)Cl)ncn1 (stereo not given) | inactive: -1.03%
CCOP(=O)(Nc1ccccc1)OCC | inactive: 4.64%
CCN(N=Nc1nonc1N)c1nonc1N | inactive: 0.48%
COc1ccccc1OP(=O)(Nc1ccc(C)cn1)Oc1ccccc1OC | inactive: 3.04%
CN1CCCC(OC(=O)C(c2ccccc2)c2ccccc2)C1 (stereo not given) | inactive: 0.82%
Clc1ccc(Cl)c(NC2=NCC(CBr)S2)c1 (stereo not given) | inactive: 2.2%
NC(=O)c1cc([N+](=O)[O-])cc([N+](=O)[O-])c1N | inactive: 2.09%
Cc1ccc(N/C(=N/P(=O)(N2CCOCC2)N2CCOCC2)N2CCOCC2)cc1 | inactive: -0.2%
CC(C)CC(=O)NC(Sc1ccc(Cl)cc1)C(Cl)(Cl)Cl (stereo not given) | inactive: 3.02%
Oc1ccccc1CNc1ccccn1 | inactive: 12.7%
O=C(NC(Sc1ccncn1)C(Cl)(Cl)Cl)c1ccccc1 (stereo not given) | inactive: -5.83%
Cc1c2non([O-])c-2c(C)[n+](=O)[n+]1[O-] | inactive: -4.19%
CC(C)(C)C(=O)NC(Sc1ccccc1)C(Cl)(Cl)Cl (stereo not given) | inactive: 8.32%
O=P1(Nc2nc3ccc(Cl)cc3s2)COc2ccccc2O1 (stereo not given) | inactive: -2.13%
CCOc1ccc(C2=NCC(CBr)S2)cc1 (stereo not given) | inactive: -3.07%
CC(=O)Nc1ccc(Oc2c([N+](=O)[O-])cc([N+](=O)[O-])cc2[N+](=O)[O-])cc1 | inactive: 9.51%

Compound | inhibition
O=C(NC1CCS(=O)(=O)C1)NP(=S)(Oc1ccccc1)Oc1ccccc1 (stereo not given) | inactive: -2.44%
CCNC(=S)/N=C(\N)N[N+](=O)[O-] | inactive: -1.63%
c1ccc(-c2nn[nH]n2)c(-c2nn[nH]n2)c1 | inactive: 5%
CCOC(=O)NC(Sc1ccccc1)C(Cl)(Cl)Cl (stereo not given) | inactive: 0.5%
O=c1c2cc([N+](=O)[O-])ccc2[nH]c2c([N+](=O)[O-])cc([N+](=O)[O-])cc12 | inactive: 5.13%
COC(=O)c1cc2c(s1)N=C(c1ccccc1)N(C)P2(=O)N1CCOCC1 (stereo not given) | inactive: 1.15%
CC(=O)NC(SC(=S)N(CC(C)C)CC(C)C)C(Cl)(Cl)Cl (stereo not given) | inactive: 12.9%
Cc1ccc(OP(=O)(Nc2ccccn2)Oc2ccc(C)cc2)cc1 | inactive: 4.56%
CCC(=O)N1C2C3N(C(=O)CC)C1C1N(C(=O)CC)C(C(N1C(=O)CC)N3C(=O)CC)N2C(=O)CC | inactive: 6.38%
O=P(Nc1ccccn1)(c1ccc(Br)cc1)c1ccc(Br)cc1 | inactive: 11.8%
C(Cc1nn[nH]n1)Cc1nn[nH]n1 | inactive: 5.73%
O=C(OC1CN2CCC1CC2)c1cccc(Cl)c1 (stereo not given) | inactive: 3.59%
CC(=O)NC(SC(=S)N(C)C)C(Cl)(Cl)Cl (stereo not given) | inactive: 0.78%
c1nnnn1CCn1cnnn1 | inactive: -2.48%
O=P(Nc1nccs1)(c1ccccc1)c1ccccc1 | inactive: 5.47%
CC(C)C(=O)NC(Sc1ccccc1)C(Cl)(Cl)Cl (stereo not given) | inactive: -3.78%
Clc1n[nH]nc1-c1nn[nH][15n]1 | inactive: 8.55%
O=P1(Nc2ccccn2)COc2ccccc2OC1 | inactive: -5.44%
CC1(CBr)Cn2c(nc3ccccc3c2=O)S1 (stereo not given) | inactive: 1.68%
CN(C(=O)Cc1ccc(Cl)c(Cl)c1)[C@@H]1CCCC[C@H]1N1CCCC1 | inactive: 6.59%
CC(C)/C=N\N=C(\N)N[N+](=O)[O-] | inactive: 3.6%
CN(C)C1(CNC(=O)c2ccc(S(C)(=O)=O)cc2)CCCCC1 | inactive: 1.75%
Cc1nn(-c2ccccc2)c2c1P(=O)(N1CCOCC1)N(C)C(c1ccccc1)=N2 (stereo not given) | inactive: -5.45%
CC1CCC(C(C)C)C(OP(=O)(Nc2ccccn2)c2ccccc2)C1 (stereo not given) | inactive: 3.91%
Cc1ccc(OCC(=O)OC2CN3CCC2CC3)cc1 (stereo not given) | inactive: -0.22%
O=P1(Nc2ccc(Br)cn2)COc2ccccc2OC1 | inactive: 4.22%
O=P1(Nc2ncccn2)COc2ccccc2OC1 | inactive: -3.55%

Compound | inhibition
CCOP1(=S)c2c(C)nn(CCC#N)c2N=C(c2ccccc2F)N1C (stereo not given) | inactive: -0.39%
O=P(Nc1nccs1)(Oc1ccccc1)Oc1ccccc1 | inactive: -3.51%
O=P(Nc1nccs1)(c1ccccc1)c1nc2ccccc2s1 (stereo not given) | inactive: 2.26%
O=[N+]([O-])c1ccc2c(c1)nnn2O | inactive: 11.6%
CCOP1(=S)c2c(C)nn(CCC#N)c2N=C(c2ccc(F)cc2)N1C (stereo not given) | inactive: 2.5%
Cc1cccc(OCC(=O)OC2CN3CCC2CC3)c1 (stereo not given) | inactive: 6.18%
COc1cc(C(=O)NCC2(N3CCOCC3)CCCCC2)cc(Cl)c1OC(C)C | inactive: -1.81%
COc1cc(C2NCCC3(OCCO3)C2(C)C)cc(OC)c1OC (stereo not given) | inactive: 1.86%
CCOP(=O)(Nc1cccc2ccccc12)OCC | inactive: -0.08%
Cc1ccc(NCCc2c([N+](=O)[O-])cc([N+](=O)[O-])cc2[N+](=O)[O-])cc1 | inactive: 6.36%
COc1ccc2nc(NP(=O)(c3ccccc3)c3ccccc3)sc2c1 | inactive: 4.83%
O=C(OC1CN2CCC1CC2)C12CC3CC(CC(C3)C1)C2 (stereo not given) | inactive: 5.6%
Cc1cc(=O)[nH]c(N[N+](=O)[O-])n1 | inactive: 1.48%
Cc1c2c(nc3ccccc13)SC(C(Cl)Cl)C2 (stereo not given) | inactive: -2.99%
COc1ccc(N/C(=N/P(=O)(N2CCOCC2)N2CCOCC2)N2CCOCC2)cc1 | inactive: 0.5%
Cc1ccc2nc3c(c(C)c2c1)CC(C(Cl)Cl)S3 (stereo not given) | inactive: -0.12%
CC(C)NC(=O)NP(=O)(Oc1ccccc1)Oc1ccccc1 | inactive: -0.39%
CCN(CC)C(=S)SC(NC=O)C(Cl)(Cl)Cl (stereo not given) | inactive: 3.32%
O=[N+]([O-])c1cc([N+](=O)[O-])c(-c2ccn[nH]2)s1 | inactive: 0.99%
ClCCSc1nnc(-c2cccnc2)o1 | inactive: -2.68%
Cc1cc(SC(NC(=O)c2ccccc2)C(Cl)(Cl)Cl)nc(C(C)C)n1 (stereo not given) | inactive: -4.81%
Cc1cc(SC(NC=O)C(Cl)(Cl)Cl)ncn1 (stereo not given) | inactive: 4.07%
O=P(Nc1ccccn1)(c1cccc2ccccc12)c1cccc2ccccc12 | inactive: 0.01%
O=C(COc1ccccc1)OC1CN2CCC1CC2 (stereo not given) | inactive: -9.98%
COP1(=S)c2c(C)nn(CCC#N)c2N=C(c2ccc(F)cc2)N1C (stereo not given) | inactive: 2.21%
CCC(C)N(CC(C)C)C(=S)SC(NC(C)=O)C(Cl)(Cl)Cl (stereo not given) | inactive: 3.31%
